Where “and” joins values, the source holds several entries; their conditions need not be identical. Equal values may be shown once. Read-outs that look alike come from different tables or passages of the source.
Tests used:
Type in all cases: biochemical
hNE = molecular target: T1, hNE (Homo sapiens, UniProt P08246); test: Fluorescence-based enzymatic activity assay with hNE (MeOSuc-AAPV-AMC substrate)
T1 construct: Enzymes purified from human neutrophiles (hPR3 and hNE); purchased Athens Research and Technology; host or cells: human neutrophils
T1 sequence (P08246 30-247 limits assumed): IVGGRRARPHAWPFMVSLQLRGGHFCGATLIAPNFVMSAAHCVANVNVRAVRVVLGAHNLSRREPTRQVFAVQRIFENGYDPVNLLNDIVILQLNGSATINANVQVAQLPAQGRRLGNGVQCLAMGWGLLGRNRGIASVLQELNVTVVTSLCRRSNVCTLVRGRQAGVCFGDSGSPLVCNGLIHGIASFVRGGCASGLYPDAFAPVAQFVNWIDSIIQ

rPR3 = molecular target: T2, rPR3 (Homo sapiens, UniProt P24158); test: Fluorescence-based enzymatic activity assay with rPR3 (FRET peptide Abz-VADnVADYQ-EDDnp); settings: Rep1-Rep3
T2 construct: TEV cleavage site (C); 6x His-tag (C); made in house; host or cells: Spodoptera frugiperda Sf9 (baculovirus), secreted
T2 sequence (P24158 28-248 limits assumed): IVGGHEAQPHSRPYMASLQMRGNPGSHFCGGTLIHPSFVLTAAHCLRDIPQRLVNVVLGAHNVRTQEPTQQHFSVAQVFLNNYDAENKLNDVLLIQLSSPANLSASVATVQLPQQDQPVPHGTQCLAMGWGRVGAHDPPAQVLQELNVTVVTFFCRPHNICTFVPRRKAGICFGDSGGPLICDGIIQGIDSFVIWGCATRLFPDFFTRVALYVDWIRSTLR

hPR3 = molecular target: T3, hPR3 (Homo sapiens, UniProt P24158); test: Fluorescence-based enzymatic activity assay with hPR3 (FRET peptide Abz-VADnVADYQ-EDDnp); settings: Rep1-Rep3
T3 construct: Enzymes purified from human neutrophiles (hPR3 and hNE); purchased Athens Research and Technology; host or cells: human neutrophils
T3 sequence (P24158 28-248 limits assumed): T2 sequence (P24158 28-248 limits assumed)

SMILES | IC50 (hNE; IC50 replicates Rep1-Rep3, read-out: hNE IC50) | IC50 (hNE; mean ± SD (n = 3), read-out: IC50 hNE This study) | %Relative activity of enzyme (rPR3; inhibitor 7.8 nM) | %Relative activity of enzyme (rPR3; inhibitor 15.6 nM) | %Relative activity of enzyme (rPR3; inhibitor 62.5 nM) | %Relative activity of enzyme (rPR3; inhibitor 125 nM) | %Relative activity of enzyme (rPR3; inhibitor 250 nM) | %Relative activity of enzyme (rPR3; inhibitor 500 nM) | %Relative activity of enzyme (hPR3; inhibitor 7.8 nM) | %Relative activity of enzyme (hPR3; inhibitor 15.6 nM) | %Relative activity of enzyme (hPR3; inhibitor 31.25 nM) | %Relative activity of enzyme (hPR3; inhibitor 62.5 nM) | %Relative activity of enzyme (hPR3; inhibitor 125 nM) | %Relative activity of enzyme (hPR3; inhibitor 250 nM) | %Relative activity of enzyme (hPR3; inhibitor 500 nM)
CC(C)(C)C(=O)Oc1ccc(S(=O)(=O)Nc2ccccc2C(=O)NCC(=O)O)cc1 [Sivelestat] | 9.35 nM and 8.3 nM and 8.95 nM | 9 ± 1 nM |  |  |  |  |  |  |  |  |  |  |  |  | 
CC1=C(C#N)[C@@H](c2ccc(C#N)cc2S(C)(=O)=O)N(C)C(=O)N1c1cccc(C(F)(F)F)c1 [BAY-85-8501] |  |  | 89.0593% and 90.6766% and 85.1321% | 76.0675% and 76.7003% and 76.2025% | 43.7984% and 49.2522% and 44.5595% | 32.6099% and 34.0081% and 34.3002% | 16.7036% and 20.0993% and 16.9521% | 10.4485% and 11.7346% and 8.335% | 72.7879% and 70.4122% and 80.9211% | 59.2013% and 59.3772% and 64.0885% | 42.7531% and 47.405% and 49.3541% | 29.987% and 30.5857% and 32.445% | 20.6277% and 18.9012% and 26.7161% | 10.8483% and 13.1132% and 14.812% | 6.484% and 5.722% and 6.897%

Reference: article PMC11198849, “Expression and purification of human neutrophil proteinase 3 from insect cells and characterization of ligand binding” (PLOS ONE, 2024)
